Experimental data from patent US9120946B2, “Active energy ray curing type composition, container that accommodates composition, inkjet discharging device having container, and cured matter” (RICOH COMPANY, LTD., priority 2013, dated 2015).

What follows are substances tested on female mice (assay: skin sensitization test based on the LLNA (Local Lymph Node Assay), SI value by BrdU intake). Details: test substance 50.0 W/v % in acetone/olive oil 4:1, 25 μL to both auricles once a day for 3 days, SI less than 3 = negative.
Type: in vivo
Procedure: The individuals remaining after the categorization were excluded from the test.
The test substance was weighed in a measuring flask, and the volume of the test substance was adjusted to 1 mL with the medium. The thus-prepared test substance preparation was placed in a light-shielded airtight container (made of glass).
This treatment was performed once a day for three consecutive days.
The surrounding tissue of each auricular lymph node was removed, and the auricular lymph nodes from both the auricles were collectively weighed.
After returning the auricular lymph nodes to room temperature, the auricular lymph nodes were mashed with the gradual addition of physiological saline, and suspended therein. The thus-obtained suspension was filtrated and thereafter dispensed into the wells of a 96-well microplate, with 3 wells being used per individual. The thus-dispensed suspensions were measured for intake of BrdU by the ELISA method. […] A multiplate reader (FLUOSTAR OPTIMA, product of BMG LABTECH Inc.) was used to measure the absorbance of each well (OD: 370 nm to 492 nm, the intake of BrdU), and the average of the absorbance of the 3 wells for each individual was used as the measurement of BrdU for the individual.

Going from “ethylene oxide-modified bisphenol A diacrylate [a4]” to “ethyleneoxide-modified pentaerythritol tetraacrylate [a6]”, the “SI values in LLNA test” value rises from 1.2 to 1.6.

For “ethyleneoxide-modified trimethylolpropanetrimethacrylate [a3]”, the “SI values in LLNA test” value was 1.0.
